Literature values in patent US20230226072A1 (priority 2020, published 2023).

Conditions: after oral administration; cited from earlier work

SMILES: CN(C)c1ccc2nc3ccc(N(C)C)cc3[s+]c2c1.[Cl-] [methylene blue, [7-(dimethylamino)phenothiazin-3-ylidene]-dimethylazanium; chloride]
- time of peak plasma concentrations: two
